Results on one compound are retold here after ChEMBL document CHEMBL3865840, “Minimizing CYP2C9 Inhibition of Exposed-Pyridine NAMPT (Nicotinamide Phosphoribosyltransferase) Inhibitors” (J Med Chem, 2016).

Protein sequences, listed by entry. Tags and fused reporters are not part of them.
UniProt P11712, whole entry: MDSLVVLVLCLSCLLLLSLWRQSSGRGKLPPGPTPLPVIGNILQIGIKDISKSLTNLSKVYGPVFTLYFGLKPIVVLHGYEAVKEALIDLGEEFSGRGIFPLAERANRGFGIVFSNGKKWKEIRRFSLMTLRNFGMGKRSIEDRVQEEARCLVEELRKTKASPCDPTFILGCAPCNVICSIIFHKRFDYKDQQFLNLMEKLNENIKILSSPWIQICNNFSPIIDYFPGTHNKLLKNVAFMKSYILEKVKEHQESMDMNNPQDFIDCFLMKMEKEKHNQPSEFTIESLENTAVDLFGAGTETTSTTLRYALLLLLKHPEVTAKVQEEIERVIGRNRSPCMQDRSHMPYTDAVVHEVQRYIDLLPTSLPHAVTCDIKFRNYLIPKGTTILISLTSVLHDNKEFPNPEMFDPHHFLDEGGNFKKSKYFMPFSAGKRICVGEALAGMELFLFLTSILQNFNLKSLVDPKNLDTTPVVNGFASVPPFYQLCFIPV
UniProt P10635, whole entry: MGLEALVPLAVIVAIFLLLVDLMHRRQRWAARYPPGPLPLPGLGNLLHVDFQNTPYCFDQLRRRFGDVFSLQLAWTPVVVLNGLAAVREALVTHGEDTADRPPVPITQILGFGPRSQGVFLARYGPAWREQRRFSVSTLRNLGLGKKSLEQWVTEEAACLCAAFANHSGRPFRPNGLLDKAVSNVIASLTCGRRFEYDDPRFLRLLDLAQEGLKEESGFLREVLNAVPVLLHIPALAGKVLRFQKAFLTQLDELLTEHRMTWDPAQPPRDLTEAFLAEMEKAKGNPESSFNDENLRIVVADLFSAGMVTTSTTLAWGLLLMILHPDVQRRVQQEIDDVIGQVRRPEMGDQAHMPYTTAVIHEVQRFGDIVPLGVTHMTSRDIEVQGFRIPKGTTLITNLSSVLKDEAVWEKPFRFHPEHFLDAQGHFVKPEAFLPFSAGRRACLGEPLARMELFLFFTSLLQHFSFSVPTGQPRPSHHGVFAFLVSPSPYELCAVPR

By IC50 is commonly meant the concentration at which inhibition is half-maximal. Lower therefore signals higher potency.

The target of one assay is Cytochrome P450 2C9 (Homo sapiens, UniProt P11712).
For the next assay, the target named is Cytochrome P450 2D6 (Homo sapiens, UniProt P10635).

Where only a bound is given, the exact number is not on record here.

Regarding `O=C(NCc1ccc(S(=O)(=O)c2cc(F)cc(F)c2)cc1)c1ccc2nccn2c1`, the IC50 was 200 nM at Cytochrome P450 2C9 and greater than 10000 nM against Cytochrome P450 2D6.
